Experimental data reported in US20230174938A1, “METHODS AND COMPOSITIONS FOR GENERATING HUMAN ERYTHROID PROGENITOR CELLS” (Trailhead Biosystems Inc., priority 2021, published 2023).

Columns and labels:
Assay type in all cases: cell-based, human
[1] = tested on: CD34+ population of cells isolated from cord blood; experiment: HD-DoE 8-factor experiment optimized for maximum expression of GATA1 (stage 1); conditions: 8-factor model optimized for maximum GATA1 expression; 3-day treatment
Excerpt: This example utilizes a method of High-Dimensional Design of Experiments (HD-DoE), as previously described in Bukys et al. (2020) Iscience 23:101346. The method employs computerized design geometries to simultaneously test multiple process inputs and offers mathematical modeling of a deep effector/response space. The method allows for finding combinatorial signaling inputs that control a complex process, such as during cell differentiation. It allows testing of multiple plausible critical process parameters, as such parameters impact output responses, such as gene expression. Because gene expression provides hallmark features of the phenotype of, for example, a human cell, the method can be applied to identify, and understand, which signaling pathways control cell fate. […]
To test the effectors, experiments with at least 8 factors were designed that can assess the response of cells to different combinations of effectors in a range of concentrations. […] The impact of each effector on gene expression level is defined by a parameter called factor contribution that is calculated for each effector during the modeling. […]
To identify the recipe of stage 1 of differentiation, cells were grown for 3 days in media containing stem cell factor (SCF). […] Three days later RNA extraction was performed and gene expression was obtained using quantitative PCR analysis. […]

CD34 cells = experiment: HD-DoE 6-factor experiment optimized for maximum expression of GATA1; conditions: 6-factor model optimized for maximum GATA1 expression; SCF 5 ng/mL in all wells
Experimental: To test whether EPO or other commonly used cytokines are required for GATA1 induction, we conducted experiments with 6 factors in a range of concentrations. On this experiment CD34 cells were thawed and kept overnight in media containing SCF 10 ng/mL. On the next day, 48 different combinations of effectors were added to the cells, and SCF 5 ng/mL was kept in all the wells. Optimizing for maximal expression of the GATA1 key regulatory gene led to a robust solution. At this solution, other genes expressed in megakaryocytes and erythrocytes, such as ITGA2b, ZFPM1, KLF1 and EPOR were also predicted to be abundantly expressed. This model was derived from initial testing of IL6, IL3, SCF, EPO, Activin A and IGFII.

[2] = tested on: MEP progenitor from CD34+ HSCs; experiment: Factor criticality analysis (dynamic profile), stage 1 recipe; set-up: GATA1 expression / TFRC expression: unit not given here
Experimental: To assess the impact of the elimination of each validated factor identified for the stage 1 and 2 recipes as described in Example 1, dynamic profile analysis was used and compared the expression level of genes of interest in absence of each finalized factor while others are present.
In the stage 1 recipe, each of the five finalized factors was removed while the other four factors remained present and the expression levels of GATA2, GATA1, CD36 and TFRC were assessed compared to the presence of all five factors. When IL-3 was removed, the values of GATA1 expression decreased from 510 to 240, the values of CD36 expression changed from 260 to 70, the values of GATA2 expression decreased from 2200 to 1400 and the values of TFRC expression dropped from 960 to 580. All changes represent a significant loss of expression of a desired gene for the MEP progenitor.

[3] = named factor removed, other four present

B1: IL-3: IL3R agonist, interleukin-3 (protein, UniProt P08700 20-152, looked up)
Interleukin-3: APMTQTTPLKTSWVNCSNMIDEIITHLKQPPLPLLDFNNLNGEDQDILMENNLRRPNLEAFNRAVKSLQNASAIESILKNLLPCLPLATAAPTRHPIHIKDGDWNEFRRKLTFYLKTLENAQAQQTTLSLAIF
factor contribution [1]: 41 | factor contribution (CD34 cells): 31 | CD36 expression ([2]; all five factors present): 260 | GATA1 expression ([2]; all five factors present): 510 | GATA2 expression ([2]; all five factors present): 2200 | TFRC expression ([2]; all five factors present): 960 | CD36 expression [2, 3]: 70 | GATA1 expression [2, 3]: 240 | GATA2 expression [2, 3]: 1400 | TFRC expression [2, 3]: 580
